Data from US9018381B2, “Chemical compounds” (AstraZeneca AB, priority 2010, dated 2015).

By UniProt entry, the sequences of proteins in these tests, tags left out. Residues count along the entry.
UniProt Q07817, 1-209: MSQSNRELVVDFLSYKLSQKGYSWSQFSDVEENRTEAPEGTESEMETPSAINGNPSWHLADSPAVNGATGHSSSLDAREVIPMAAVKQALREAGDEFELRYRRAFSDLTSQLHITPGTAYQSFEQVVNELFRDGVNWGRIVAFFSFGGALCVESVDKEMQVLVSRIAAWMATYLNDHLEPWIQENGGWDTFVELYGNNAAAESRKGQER

Molecular target: Bcl-XL (Homo sapiens (Human), UniProt Q07817)
Experiment: Bcl-XL FP assay (fluorescence polarization competitive binding)
Details: C-terminal 6×HIS tagged Bcl-XL (aa 1-209), FITC-Bim BH-3 peptide tracer
Excerpt: Bcl-xL and Bcl-2 FP binding affinity of compound(s) of Formulae (I), (I-a), (I-b), (I-c), (I-d) and/or (I-e) may be determined using a variety of known methods. One such assay is a sensitive and quantitative in vitro binding assay using fluorescence polarization (“FP”) described by Wang, J.-L.; Zhang, Z-J.; Choksi, S.; Sjam. S.; Lu, Z.; Croce, C. M.; Alnemri, E. S.; Komgold, R.; Huang, Z. Cell permeable Bcl-2 binding peptides: a chemical approach to apoptosis induction in tumor cells. Cancer Res. 2000, 60, 1498-1502).
Additionally, the binding affinity of compound(s) of Formulae (I), (I-a), (I-b), (I-c), (I-d) and/or (I-e) to Bcl-2 protein in vitro was determined by a competitive binding assay based on fluorescence polarization. For example, fluorescence polarization (“FP”) assays may be developed using a c-terminal 6×HIS tagged Bcl-2 (aa 1-204) and a C-terminal 6×HIS tagged Bcl-XL (aa 1-209). The tracer may be a synthetic peptide BH-3 peptide Bim conjugated to Fluorescein isothiocyanate (FITC—[…]). […] Samples may be read after 20-minute incubation. Fluorescence polarization values may be plotted as a function of the antagonist concentration.
When tested in an FP assay based on the FP assay described above, the inhibitory activity of the following examples were measured at the IC50s (μM) shown in Table 1.

N#C[C@@H](c1ccccc1-c1ccc(Cl)cc1)C1CCN(c2ccc(C(=O)NS(=O)(=O)c3ccc(N[C@H](CCN4CCOCC4)CSc4ccccc4)c(S(=O)(=O)C(F)(F)F)c3)cc2)CC1 (single isomer, unassigned) [Example 17]
IC50: 1 nM
